Source: publication PMC6038798, “Dissecting how modular polyketide synthase ketoreductases interact with acyl carrier protein-attached substrates” (Chemical Communications (Cambridge, England), 2017)

Key:
[1] = target: mKRa, A1-type ketoreductase (KR) domain from module 5 of MLSA1 of the mycolactone polyketide synthase (Mycobacterium ulcerans); assay: ITC; ACP species titrated against the KR domain in the presence of excess NADP+ (oxidised cofactor); three repeat experiments
[2] = target: mKRa, A1-type ketoreductase (KR) domain from module 5 of MLSA1 of the mycolactone polyketide synthase (Mycobacterium ulcerans); assay: ITC; ACP species injected into a solution of the KR domain in the presence of excess NADPH; three repeat experiments

“Acetoacetyl-mACPa (1b) (domain or fragment)” showed a pKd [1] of 6.37.
With “apo mACPa, acyl carrier protein domain cognate to mKRa (module 5 of MLSA1), apo form (domain or fragment)” the pKd [2] was 5.60 and the stoichiometry N [2] was 1.
Work on “apo mACPb, acyl carrier protein domain cognate to mKRb (module 7 of MLSB), apo form (domain or fragment)” yielded a pKd [2] of 5.74.
Substance holo mACPa (1a) (domain or fragment) has a pKd [2] of 6.11 and a stoichiometry N [2] of 1.
holo mACPb (1a) (domain or fragment) gave a pKd [2] of 6.13.
“β-Hydroxybutyryl-mACPa (1c) (domain or fragment)” was tested, and the pKd [2] was 6.54.

pKd: −log10 of the molar value.
